The text below walks through data of ChEMBL document CHEMBL1132025, “Macrocyclic hexapeptide analogues of the thrombin receptor (PAR-1) activation motif SFLLRN” (Bioorg Med Chem Lett, 1999).

The assay addresses Proteinase-activated receptor 1 (Homo sapiens) (UniProt P25116). Briefly: In vitro antagonist activity to inhibit human platelet aggregation (gel-filtered platelets) induced by human thrombin at a concentration of 50 uM.

The inhibition is the relative decrease from the control value, in per cent. A low value points to a response near the control.

`CC(C)C[C@H](NC(=O)[C@H](CC(C)C)NC(=O)[C@H](Cc1ccccc1)NC(=O)[C@@H](N)CO)C(=O)N[C@@H](CCCN=C(N)N)C(=O)N[C@@H](CC(N)=O)C(N)=O` had an inhibition of 0%.
